For this test, the target named is T1, Zymogen rMASP-3 (human, UniProt P48740-2 20-728, RED-tris-NTA dye on the His tag (in the MST only)).
T1 sequence (looked up): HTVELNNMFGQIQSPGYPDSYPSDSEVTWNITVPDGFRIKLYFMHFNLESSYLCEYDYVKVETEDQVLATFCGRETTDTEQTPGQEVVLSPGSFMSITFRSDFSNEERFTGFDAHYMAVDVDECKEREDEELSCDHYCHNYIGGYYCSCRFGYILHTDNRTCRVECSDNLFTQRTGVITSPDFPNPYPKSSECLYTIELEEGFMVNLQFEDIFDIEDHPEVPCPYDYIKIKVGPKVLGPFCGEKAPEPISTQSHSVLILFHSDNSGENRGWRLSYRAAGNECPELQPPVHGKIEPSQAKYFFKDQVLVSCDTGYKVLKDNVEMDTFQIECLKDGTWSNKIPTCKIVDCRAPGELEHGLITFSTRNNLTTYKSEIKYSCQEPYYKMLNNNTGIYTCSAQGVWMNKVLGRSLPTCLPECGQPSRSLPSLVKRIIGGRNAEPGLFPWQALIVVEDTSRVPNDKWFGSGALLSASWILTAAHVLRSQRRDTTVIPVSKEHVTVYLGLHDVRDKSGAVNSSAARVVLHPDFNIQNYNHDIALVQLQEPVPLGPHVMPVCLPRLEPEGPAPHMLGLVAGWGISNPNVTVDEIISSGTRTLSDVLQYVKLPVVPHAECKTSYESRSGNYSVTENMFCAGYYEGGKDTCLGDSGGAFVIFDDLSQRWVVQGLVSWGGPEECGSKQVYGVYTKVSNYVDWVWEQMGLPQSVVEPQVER
Kind of test: MST.

B1: rMBL (natural protein, UniProt P11226 21-248, looked up)
chain: ETVTCEDAQKTCPAVIACSSPGINGFPGKDGRDGTKGEKGEPGQGLRGLQGPPGKLGPPGNPGPSGSPGPKGQKGDPGKSPDGDSSLAASERKALQTEMARIKKWLTFSLGKQVGNKFFLTNGEIMTFEKVKALCVKFQASVATPRNAAENGAIQNLIKEEAFLGITDEKTEGQFVDLTGNRLTYTNWNEGEPNNAGSDEDCVLLLKNGQWNDVPCSTSHLAVCEFPI
The molecule B1 yielded an equilibrium dissociation constant (Kd) of 1.79 nM.

By Kd is commonly meant the equilibrium constant for the complex coming apart.
